Experimental findings from ChEMBL document CHEMBL5550172 (Eur J Med Chem, 2024) are described below.

Amino acid sequences for entries named in this document (tags omitted). A change or cut given only in a name is not applied to a line headed by its entry.
UniProt Q13547: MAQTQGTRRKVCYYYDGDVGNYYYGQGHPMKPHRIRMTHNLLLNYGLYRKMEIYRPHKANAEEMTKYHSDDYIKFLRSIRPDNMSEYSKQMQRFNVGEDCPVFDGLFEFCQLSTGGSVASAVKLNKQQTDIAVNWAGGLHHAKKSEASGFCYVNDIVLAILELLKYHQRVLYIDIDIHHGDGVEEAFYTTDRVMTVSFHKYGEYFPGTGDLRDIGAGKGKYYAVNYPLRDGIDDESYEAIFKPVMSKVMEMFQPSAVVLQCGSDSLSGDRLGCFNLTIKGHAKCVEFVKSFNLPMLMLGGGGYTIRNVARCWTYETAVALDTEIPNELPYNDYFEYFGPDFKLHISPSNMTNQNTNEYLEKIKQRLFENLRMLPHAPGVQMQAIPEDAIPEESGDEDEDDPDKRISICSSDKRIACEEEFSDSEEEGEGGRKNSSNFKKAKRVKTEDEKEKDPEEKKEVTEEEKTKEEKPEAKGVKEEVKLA
UniProt Q9UBN7: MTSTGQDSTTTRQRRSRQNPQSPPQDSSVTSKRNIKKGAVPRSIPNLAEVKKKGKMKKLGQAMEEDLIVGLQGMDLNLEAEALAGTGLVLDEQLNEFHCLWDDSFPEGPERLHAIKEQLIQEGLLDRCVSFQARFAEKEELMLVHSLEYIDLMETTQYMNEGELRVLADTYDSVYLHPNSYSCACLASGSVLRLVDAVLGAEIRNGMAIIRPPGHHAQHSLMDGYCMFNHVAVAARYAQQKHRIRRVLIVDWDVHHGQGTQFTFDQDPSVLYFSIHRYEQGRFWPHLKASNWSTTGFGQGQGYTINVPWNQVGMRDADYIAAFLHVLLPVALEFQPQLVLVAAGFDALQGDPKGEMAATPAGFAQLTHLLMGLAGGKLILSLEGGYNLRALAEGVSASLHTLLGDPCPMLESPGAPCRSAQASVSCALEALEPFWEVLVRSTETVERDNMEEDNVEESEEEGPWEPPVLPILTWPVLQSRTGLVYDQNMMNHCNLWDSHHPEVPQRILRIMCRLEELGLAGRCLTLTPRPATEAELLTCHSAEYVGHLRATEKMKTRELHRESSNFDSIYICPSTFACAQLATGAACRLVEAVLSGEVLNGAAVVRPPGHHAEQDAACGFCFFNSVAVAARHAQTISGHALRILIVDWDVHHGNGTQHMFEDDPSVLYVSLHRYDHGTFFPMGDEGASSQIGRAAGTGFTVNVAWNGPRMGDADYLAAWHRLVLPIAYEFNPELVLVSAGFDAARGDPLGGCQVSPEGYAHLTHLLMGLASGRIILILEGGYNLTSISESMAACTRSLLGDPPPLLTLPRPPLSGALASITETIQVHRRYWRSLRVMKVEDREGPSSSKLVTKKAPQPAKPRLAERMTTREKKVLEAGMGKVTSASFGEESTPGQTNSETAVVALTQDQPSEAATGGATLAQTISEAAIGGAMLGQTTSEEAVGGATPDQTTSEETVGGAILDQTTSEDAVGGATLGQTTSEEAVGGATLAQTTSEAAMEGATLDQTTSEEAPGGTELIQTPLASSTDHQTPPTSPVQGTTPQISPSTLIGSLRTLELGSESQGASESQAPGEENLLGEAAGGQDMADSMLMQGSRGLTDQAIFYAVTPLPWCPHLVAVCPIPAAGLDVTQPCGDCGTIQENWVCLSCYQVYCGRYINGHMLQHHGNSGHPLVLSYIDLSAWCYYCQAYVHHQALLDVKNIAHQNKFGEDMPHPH
UniProt Q92769: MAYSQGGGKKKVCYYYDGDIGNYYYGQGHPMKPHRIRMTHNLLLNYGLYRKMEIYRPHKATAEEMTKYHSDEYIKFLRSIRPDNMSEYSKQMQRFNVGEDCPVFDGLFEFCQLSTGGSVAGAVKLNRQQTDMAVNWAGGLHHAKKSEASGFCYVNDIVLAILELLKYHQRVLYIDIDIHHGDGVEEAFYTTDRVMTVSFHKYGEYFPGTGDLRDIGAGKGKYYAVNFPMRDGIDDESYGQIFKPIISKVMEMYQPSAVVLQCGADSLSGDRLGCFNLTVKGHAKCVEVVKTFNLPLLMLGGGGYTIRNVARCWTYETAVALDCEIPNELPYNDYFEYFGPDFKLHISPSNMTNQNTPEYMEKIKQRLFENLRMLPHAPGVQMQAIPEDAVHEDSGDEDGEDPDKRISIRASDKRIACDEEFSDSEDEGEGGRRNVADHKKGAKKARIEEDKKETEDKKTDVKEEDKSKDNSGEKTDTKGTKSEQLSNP
UniProt Q8WUI4: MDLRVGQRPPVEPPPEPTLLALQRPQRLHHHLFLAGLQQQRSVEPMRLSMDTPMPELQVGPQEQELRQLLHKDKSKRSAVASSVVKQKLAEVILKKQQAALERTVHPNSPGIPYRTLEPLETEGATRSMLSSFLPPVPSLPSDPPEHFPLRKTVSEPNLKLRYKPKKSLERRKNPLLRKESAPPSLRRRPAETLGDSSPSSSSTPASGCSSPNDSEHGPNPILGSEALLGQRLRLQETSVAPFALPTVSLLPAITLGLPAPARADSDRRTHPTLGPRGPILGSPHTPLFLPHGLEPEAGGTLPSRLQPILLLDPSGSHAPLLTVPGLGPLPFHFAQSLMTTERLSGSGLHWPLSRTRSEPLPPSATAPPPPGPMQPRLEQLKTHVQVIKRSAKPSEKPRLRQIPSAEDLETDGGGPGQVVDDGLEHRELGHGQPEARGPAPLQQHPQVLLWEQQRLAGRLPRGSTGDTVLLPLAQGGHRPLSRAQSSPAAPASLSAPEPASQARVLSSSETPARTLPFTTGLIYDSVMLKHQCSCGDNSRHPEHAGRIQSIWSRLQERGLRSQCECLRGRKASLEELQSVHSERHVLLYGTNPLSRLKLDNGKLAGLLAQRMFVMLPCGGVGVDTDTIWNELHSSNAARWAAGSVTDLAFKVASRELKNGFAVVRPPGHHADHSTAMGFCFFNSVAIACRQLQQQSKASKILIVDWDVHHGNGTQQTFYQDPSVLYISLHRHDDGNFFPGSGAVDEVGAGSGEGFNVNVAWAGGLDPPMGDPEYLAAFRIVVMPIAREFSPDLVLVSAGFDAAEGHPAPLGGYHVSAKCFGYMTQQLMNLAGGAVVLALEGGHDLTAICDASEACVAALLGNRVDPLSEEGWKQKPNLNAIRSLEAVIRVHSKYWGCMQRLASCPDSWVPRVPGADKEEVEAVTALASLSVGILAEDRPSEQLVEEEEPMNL
UniProt Q9BY41: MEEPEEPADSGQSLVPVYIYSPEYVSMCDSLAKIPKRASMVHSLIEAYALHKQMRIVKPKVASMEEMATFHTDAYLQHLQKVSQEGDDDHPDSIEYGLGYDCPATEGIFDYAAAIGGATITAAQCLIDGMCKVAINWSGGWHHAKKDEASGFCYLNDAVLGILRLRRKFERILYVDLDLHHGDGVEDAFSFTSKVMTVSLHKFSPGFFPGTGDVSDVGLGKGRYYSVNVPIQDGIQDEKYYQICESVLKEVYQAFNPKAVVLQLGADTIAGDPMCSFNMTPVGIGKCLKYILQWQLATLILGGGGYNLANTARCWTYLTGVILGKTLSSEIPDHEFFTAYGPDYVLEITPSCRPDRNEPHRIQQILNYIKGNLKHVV
UniProt Q96DB2: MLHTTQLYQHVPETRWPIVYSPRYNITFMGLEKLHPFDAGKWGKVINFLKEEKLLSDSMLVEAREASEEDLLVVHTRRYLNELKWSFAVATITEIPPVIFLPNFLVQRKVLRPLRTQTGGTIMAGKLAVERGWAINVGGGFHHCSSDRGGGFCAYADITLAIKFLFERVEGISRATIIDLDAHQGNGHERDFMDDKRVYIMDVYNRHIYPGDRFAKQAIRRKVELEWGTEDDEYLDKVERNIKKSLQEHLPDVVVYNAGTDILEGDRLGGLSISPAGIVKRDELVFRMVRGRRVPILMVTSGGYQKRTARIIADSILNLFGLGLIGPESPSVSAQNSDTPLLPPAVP
UniProt P56524: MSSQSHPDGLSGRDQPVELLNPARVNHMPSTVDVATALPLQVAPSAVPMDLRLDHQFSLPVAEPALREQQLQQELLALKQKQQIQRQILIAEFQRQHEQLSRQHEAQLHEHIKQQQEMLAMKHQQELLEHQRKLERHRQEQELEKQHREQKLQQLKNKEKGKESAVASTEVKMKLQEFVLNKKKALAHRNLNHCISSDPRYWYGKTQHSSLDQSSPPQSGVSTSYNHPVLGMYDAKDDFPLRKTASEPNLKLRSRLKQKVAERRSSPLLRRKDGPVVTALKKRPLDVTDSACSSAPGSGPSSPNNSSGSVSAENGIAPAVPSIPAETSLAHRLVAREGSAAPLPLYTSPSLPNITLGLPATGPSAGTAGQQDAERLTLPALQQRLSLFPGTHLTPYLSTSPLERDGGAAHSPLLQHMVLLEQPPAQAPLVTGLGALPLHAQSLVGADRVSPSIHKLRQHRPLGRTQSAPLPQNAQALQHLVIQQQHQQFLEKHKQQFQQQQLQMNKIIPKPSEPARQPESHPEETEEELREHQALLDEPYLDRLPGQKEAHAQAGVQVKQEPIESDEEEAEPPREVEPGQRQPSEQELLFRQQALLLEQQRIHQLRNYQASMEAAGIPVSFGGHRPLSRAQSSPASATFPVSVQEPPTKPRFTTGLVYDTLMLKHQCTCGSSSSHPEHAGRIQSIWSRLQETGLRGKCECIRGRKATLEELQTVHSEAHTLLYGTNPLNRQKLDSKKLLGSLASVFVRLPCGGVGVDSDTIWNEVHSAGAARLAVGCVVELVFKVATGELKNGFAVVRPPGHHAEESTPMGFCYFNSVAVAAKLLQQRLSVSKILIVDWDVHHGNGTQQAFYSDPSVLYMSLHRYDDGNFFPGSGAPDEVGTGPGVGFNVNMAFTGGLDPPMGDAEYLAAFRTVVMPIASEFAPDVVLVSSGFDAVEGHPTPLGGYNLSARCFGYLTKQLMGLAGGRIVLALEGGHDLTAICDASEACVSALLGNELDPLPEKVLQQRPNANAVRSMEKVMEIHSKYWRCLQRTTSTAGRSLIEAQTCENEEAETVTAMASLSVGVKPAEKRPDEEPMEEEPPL
UniProt Q9UKV0: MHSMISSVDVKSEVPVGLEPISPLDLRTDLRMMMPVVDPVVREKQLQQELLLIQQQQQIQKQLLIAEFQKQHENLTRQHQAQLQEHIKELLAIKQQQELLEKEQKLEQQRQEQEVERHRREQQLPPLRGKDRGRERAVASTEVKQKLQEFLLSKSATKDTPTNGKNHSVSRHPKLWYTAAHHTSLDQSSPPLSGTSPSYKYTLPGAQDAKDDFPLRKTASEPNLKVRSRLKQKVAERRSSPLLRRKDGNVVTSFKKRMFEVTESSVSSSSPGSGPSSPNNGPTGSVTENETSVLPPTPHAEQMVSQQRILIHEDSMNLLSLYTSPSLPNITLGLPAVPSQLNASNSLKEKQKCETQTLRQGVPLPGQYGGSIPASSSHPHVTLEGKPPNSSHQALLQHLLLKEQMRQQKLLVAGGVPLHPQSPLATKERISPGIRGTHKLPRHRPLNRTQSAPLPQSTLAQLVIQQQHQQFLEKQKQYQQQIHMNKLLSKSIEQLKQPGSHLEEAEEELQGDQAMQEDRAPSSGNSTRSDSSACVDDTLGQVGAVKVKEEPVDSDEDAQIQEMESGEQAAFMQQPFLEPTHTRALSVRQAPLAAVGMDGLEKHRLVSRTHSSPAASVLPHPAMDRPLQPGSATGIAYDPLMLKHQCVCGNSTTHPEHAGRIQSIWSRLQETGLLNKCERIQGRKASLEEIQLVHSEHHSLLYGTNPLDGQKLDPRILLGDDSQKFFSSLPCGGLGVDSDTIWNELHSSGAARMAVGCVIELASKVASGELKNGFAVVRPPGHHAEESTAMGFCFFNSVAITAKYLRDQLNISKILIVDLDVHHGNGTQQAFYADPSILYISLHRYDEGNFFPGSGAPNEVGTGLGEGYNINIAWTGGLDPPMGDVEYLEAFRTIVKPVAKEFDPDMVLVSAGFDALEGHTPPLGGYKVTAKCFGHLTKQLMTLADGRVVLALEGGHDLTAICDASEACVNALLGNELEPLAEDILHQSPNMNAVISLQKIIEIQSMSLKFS
UniProt P03372, whole entry: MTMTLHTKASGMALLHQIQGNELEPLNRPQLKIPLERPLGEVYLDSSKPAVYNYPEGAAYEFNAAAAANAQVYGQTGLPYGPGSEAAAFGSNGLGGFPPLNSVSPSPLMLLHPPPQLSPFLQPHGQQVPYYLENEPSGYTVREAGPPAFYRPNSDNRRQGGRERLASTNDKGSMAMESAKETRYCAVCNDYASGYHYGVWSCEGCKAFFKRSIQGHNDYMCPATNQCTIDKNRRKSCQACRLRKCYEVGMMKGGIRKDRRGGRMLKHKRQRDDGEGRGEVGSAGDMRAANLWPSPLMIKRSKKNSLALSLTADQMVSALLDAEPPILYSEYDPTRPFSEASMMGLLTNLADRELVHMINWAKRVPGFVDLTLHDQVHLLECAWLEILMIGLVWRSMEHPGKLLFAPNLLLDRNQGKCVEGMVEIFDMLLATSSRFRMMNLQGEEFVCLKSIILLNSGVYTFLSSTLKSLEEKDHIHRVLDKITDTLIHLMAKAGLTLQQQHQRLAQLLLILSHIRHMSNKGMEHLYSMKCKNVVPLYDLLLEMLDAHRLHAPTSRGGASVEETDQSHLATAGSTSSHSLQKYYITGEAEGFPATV

The target of assay [1] is Histone deacetylase (Homo sapiens) (UniProt Q13547+O15379+Q9UBN7+Q92769+Q9UQL6+Q8WUI4+Q9BY41+Q96DB2+P56524+Q9UKV0+Q969S8). Put plainly: Inhibition of HDAC in human MCF7 cells assessed as increase in alpha-tubulin incubated for 24 hrs by Western blot analysis. The class given is cell-based. As to conditions: dose 2-8 µM. A general note: Immunoblotting shows a protein as a band on a membrane.

Assay [2] addresses Estrogen receptor (Homo sapiens) (UniProt P03372). As to the kind of experiment: Antagonist activity at ER-alpha in human MCF7 cells incubated for 6 to 24 hrs by Western blot analysis. The class given is cell-based. To be noted: filed as antagonist, dose 2-8 µM, time 6-24 hrs.

For the molecule `O=C(CCCCCc1ccc(-c2sc3cc(O)ccc3c2C(=O)c2ccc(OCCN3CCCCC3)cc2)cc1)NO`, the inhibition entry in assay [1] is “Dose-Dependent Effect”.

On to `O=C(CCCCCOc1ccc(-c2sc3cc(O)ccc3c2C(=O)c2ccc(OCCN3CCCCC3)cc2)cc1)NO`, for which the inhibition result in assay [1] is “Dose-Dependent Effect”.

`O=C(CCCCCCC(=O)Nc1ccccc1)NO`: the Activity entry in assay [2] is “Dose-Dependent Effect”.
